From patent US7759499B2, “Compounds as inhibitors of hepatitis C virus NS3 serine protease” (Schering Corporation, priority 2004, dated 2010)
pKi: −log10 of the molar value.

Chains of the proteins cited; added tags and fusions are not shown. Residues count along the entry.
UniProt P27958, 1027-1657: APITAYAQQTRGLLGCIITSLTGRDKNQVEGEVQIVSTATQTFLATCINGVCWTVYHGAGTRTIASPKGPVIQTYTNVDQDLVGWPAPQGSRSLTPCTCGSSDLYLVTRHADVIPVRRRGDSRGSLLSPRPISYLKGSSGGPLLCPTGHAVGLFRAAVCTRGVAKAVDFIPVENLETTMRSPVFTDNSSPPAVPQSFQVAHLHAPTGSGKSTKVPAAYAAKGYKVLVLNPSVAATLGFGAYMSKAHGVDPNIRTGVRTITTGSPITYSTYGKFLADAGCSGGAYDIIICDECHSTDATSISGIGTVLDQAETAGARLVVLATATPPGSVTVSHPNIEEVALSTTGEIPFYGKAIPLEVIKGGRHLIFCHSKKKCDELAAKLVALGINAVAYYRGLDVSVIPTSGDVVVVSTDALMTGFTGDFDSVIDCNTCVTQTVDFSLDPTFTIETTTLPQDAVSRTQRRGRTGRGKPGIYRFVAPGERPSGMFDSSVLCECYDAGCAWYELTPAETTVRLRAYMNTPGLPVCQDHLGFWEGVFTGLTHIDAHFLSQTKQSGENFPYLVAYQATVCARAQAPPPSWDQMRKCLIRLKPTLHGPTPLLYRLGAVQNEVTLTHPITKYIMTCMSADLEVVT
UniProt P27958, 1658-1711: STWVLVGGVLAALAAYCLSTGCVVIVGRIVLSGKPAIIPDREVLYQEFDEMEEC

These compounds were tested against Recombinant heterodimeric HCV NS3/NS4A protease (strain 1a) (Hepatitis C virus genotype 1a, UniProt P27958) (assay: Spectrophotometric assay for HCV protease inhibitory activity). Details: Table 1, range.
Assay type: biochemical

Compound CN(C)S(=O)(=O)NC[C@@H](NC(=O)N[C@H](C(=O)N1C[C@H]2[C@@H]([C@H]1C(=O)NC(CC1CCC1)C(=O)C(N)=O)C2(C)C)C(C)(C)C)C(C)(C)C (stereo partly drawn) [Compound 10018] has a pKi of 6.60 to 7.12.

Same assay, conditions: Table 2, range

C=CCNC(=O)C(=O)C(CC1CC1)NC(=O)[C@@H]1[C@@H]2[C@H](CN1C(=O)[C@@H](NC(=O)N[C@H](CN(C)S(=O)(=O)C(F)(F)F)C(C)(C)C)C(C)(C)C)C2(C)C (stereo partly drawn) [Compound 11092] and C=CCNC(=O)C(=O)C(CC1CC1)NC(=O)[C@@H]1[C@@H]2[C@H](CN1C(=O)[C@@H](NC(=O)N[C@H](CN(C)S(C)(=O)=O)C(C)(C)C)C(C)(C)C)C2(C)C (stereo partly drawn) [Compound 11042] cannot be ordered by pKi: no less than 7.12 for the first, no less than 7.12 for the second.

CCCC(NC(=O)[C@@H]1[C@@H]2[C@H](CN1C(=O)[C@@H](NC(=O)N[C@H](CN(C)S(C)(=O)=O)[C@@H](C)CC)C(C)(C)C)C2(C)C)C(=O)C(=O)NCCC(F)(F)F (stereo partly drawn) [Compound 11125] and C=CCNC(=O)C(=O)C(CCCC)NC(=O)[C@@H]1[C@@H]2[C@H](CN1C(=O)[C@@H](NC(=O)N[C@H](CN(C)S(C)(=O)=O)C(C)C)C(C)(C)C)C2(C)C (stereo partly drawn) [Compound 11031] cannot be ordered by pKi: no less than 7.12 for the first, no less than 7.12 for the second.

CN(C[C@@H](NC(=O)N[C@H](C(=O)N1C[C@H]2[C@@H]([C@H]1C(=O)NC(CC1CC1)C(=O)C(N)=O)C2(C)C)C1Cc2ccccc2C1)C(C)(C)C)S(=O)(=O)c1cccs1 (stereo partly drawn) [Compound 11187] and CN(C[C@@H](NC(=O)N[C@H](C(=O)N1C[C@H]2[C@@H]([C@H]1C(=O)NC(CC1CCC1)C(=O)C(N)=O)C2(C)C)C1Cc2ccccc2C1)C(C)(C)C)S(=O)(=O)c1cccs1 (stereo partly drawn) [Compound 11188] cannot be ordered by pKi: no less than 7.12 for the first, no less than 7.12 for the second.

CC(C)(C)[C@H](NC(=O)NC1CCCN(S(=O)(=O)C2CC2)C1)C(=O)N1C[C@H]2[C@@H]([C@H]1C(=O)NC(CC1CCC1)C(=O)C(N)=O)C2(C)C (stereo partly drawn) [Compound 11022] and CN(C[C@@H](NC(=O)N[C@H](C(=O)N1C[C@H]2[C@@H]([C@H]1C(=O)NC(CC1CCC1)C(=O)C(N)=O)C2(C)C)C(C)(C)C)C(C)(C)C)S(=O)(=O)C1CC1 (stereo partly drawn) [Compound 11028] cannot be ordered by pKi: 6.60 to 7.12 for the first, no less than 7.12 for the second.

CC(C)[C@H](NC(=O)N[C@H](C(=O)N1C[C@H]2[C@@H]([C@H]1C(=O)NC(CC1CC1)C(=O)C(N)=O)C2(C)C)C(C)(C)C)C(=O)N(C)S(=O)(=O)c1ccccc1 (stereo partly drawn) [Compound 11045] and CN(C[C@@H](NC(=O)N[C@H](C(=O)N1C[C@H]2[C@@H]([C@H]1C(=O)NC(CC1CC1)C(=O)C(N)=O)C2(C)C)C1Cc2ccccc2C1)C(C)(C)C)S(=O)(=O)C(C)(C)C (stereo partly drawn) [Compound 11269] cannot be ordered by pKi: no less than 7.12 for the first, no less than 7.12 for the second.

C=CCNC(=O)C(=O)C(CCCC)NC(=O)[C@@H]1[C@@H]2[C@H](CN1C(=O)[C@@H](NC(=O)N[C@H](CN(C)S(=O)(=O)c1ccccc1)C(C)(C)C)C(C)(C)C)C2(C)C (stereo partly drawn) [Compound 11356] and C=CCNC(=O)C(=O)C(CCC)NC(=O)[C@@H]1[C@@H]2[C@H](CN1C(=O)[C@@H](NC(=O)N[C@H](CN(C)S(=O)(=O)c1sc(C)nc1C)C(C)(C)C)C(C)(C)C)C2(C)C (stereo partly drawn) [Compound 11115] cannot be ordered by pKi: no less than 7.12 for the first, no less than 7.12 for the second.

C=CCNC(=O)C(=O)C(CCCC)NC(=O)[C@@H]1[C@@H]2[C@H](CN1C(=O)[C@@H](NC(=O)N[C@H](CN(C)S(C)(=O)=O)C(C)(C)C)C1(C)CCCCC1)C2(C)C (stereo partly drawn) [Compound 11255] and CCS(=O)(=O)N(C)C[C@@H](NC(=O)N[C@H](C(=O)N1C[C@H]2[C@@H]([C@H]1C(=O)NC(CC1CC1)C(=O)C(N)=O)C2(C)C)C1(C)CCCCC1)C(C)(C)C (stereo partly drawn) [Compound 11317] cannot be ordered by pKi: no less than 7.12 for the first, no less than 7.12 for the second.

C#CCCC(NC(=O)[C@@H]1[C@@H]2[C@H](CN1C(=O)[C@@H](NC(=O)N[C@H](CN(C)S(=O)(=O)c1cccs1)C(C)(C)C)C1Cc3ccccc3C1)C2(C)C)C(=O)C(=O)NCC=C (stereo partly drawn) [Compound 11178] and CCCCC(NC(=O)[C@@H]1[C@@H]2[C@H](CN1C(=O)[C@@H](NC(=O)N[C@H](CN(C)S(C)(=O)=O)C(C)(C)C)C1Cc3ccccc3C1)C2(C)C)C(=O)C(=O)NCC (stereo partly drawn) [Compound 11190] cannot be ordered by pKi: no less than 7.12 for the first, no less than 7.12 for the second.

C=CCNC(=O)C(=O)C(CC1CC1)NC(=O)[C@@H]1[C@@H]2[C@H](CN1C(=O)[C@@H](NC(=O)N[C@H](CN(C)S(=O)(=O)c1ccc(OC)cc1OC)C(C)(C)C)C(C)(C)C)C2(C)C (stereo partly drawn) [Compound 11323] and C=CCNC(=O)C(=O)C(CC1CC1)NC(=O)[C@@H]1[C@@H]2[C@H](CN1C(=O)[C@@H](NC(=O)N[C@H](CN(C)S(=O)(=O)C(C)(C)C)C(C)(C)C)C(C)(C)C)C2(C)C (stereo partly drawn) [Compound 11204] cannot be ordered by pKi: no less than 7.12 for the first, 6.60 to 7.12 for the second.

First: C=CCNC(=O)C(=O)C(CCCC)NC(=O)[C@@H]1[C@@H]2[C@H](CN1C(=O)[C@@H](NC(=O)NC[C@@H](N(C)S(=O)(=O)c1ccccc1)C(C)(C)C)C1CCCCC1)C2(C)C (stereo partly drawn) [Compound 11311]
Second: C=CCNC(=O)C(=O)C(CCCC)NC(=O)[C@@H]1C[C@@H](OC(C)(C)C)CN1C(=O)[C@@H](NC(=O)N[C@H](CN(C)S(C)(=O)=O)C(C)(C)C)C1CCCCC1 (stereo partly drawn) [Compound 11195]
The pKi of the first is lower: less than 6.60 for the first, 6.60 to 7.12 for the second.

CN(C[C@@H](NC(=O)N[C@H](C(=O)N1C[C@H]2[C@@H]([C@H]1C(=O)NC(CC1CCC1)C(=O)C(N)=O)C2(C)C)C(C)(C)C)C(C)(C)C)S(=O)(=O)C(C)(C)C (stereo partly drawn) [Compound 11203] was tested, and the pKi was no less than 7.12.

Same assay, conditions: Table 3, range

CC(C)[C@@H](CNS(C)(=O)=O)NC(=O)N[C@H](C(=O)N1C[C@H]2[C@@H]([C@H]1C(=O)NC(CC1CCC1)C(=O)C(N)=O)C2(C)C)C(C)(C)C (stereo partly drawn) [Compound 12018] and C=CCNC(=O)C(=O)C(CC1CC1)NC(=O)[C@@H]1[C@@H]2[C@H](CN1C(=O)[C@@H](NC(=O)N[C@H](CNS(C)(=O)=O)C(C)C)C(C)(C)C)C2(C)C (stereo partly drawn) [Compound 12019] cannot be ordered by pKi: no less than 7.12 for the first, no less than 7.12 for the second.

CC(C)CC(C)(CNS(=O)(=O)c1ccccc1)NC(=O)N[C@H](C(=O)N1C[C@H]2[C@@H]([C@H]1C(=O)NC(CC1CCC1)C(=O)C(N)=O)C2(C)C)C(C)(C)C (stereo partly drawn) [Compound 12006] showed a pKi of 6.60 to 7.12.

Same assay, conditions: Table 5, range

C=CCNC(=O)C(=O)C(CC1CC1)NC(=O)[C@@H]1[C@@H]2[C@H](CN1C(=O)[C@@H](NC(=O)N[C@H](CN(C)C(=O)OC(C)(C)C)CC(C)(C)C)C(C)(C)C)C2(C)C (stereo partly drawn) [Compound 14043] and C=CCNC(=O)C(=O)C(CC1CC1)NC(=O)[C@@H]1[C@@H]2[C@H](CN1C(=O)[C@@H](NC(=O)N[C@H](CN(C)C(=O)OC(C)(C)C)C(C)(C)C)C(C)(C)C)C2(C)C (stereo partly drawn) [Compound 14032] cannot be ordered by pKi: less than 6.60 for the first, less than 6.60 for the second.

Same assay, conditions: Table 5A, range

CCCC(NC(=O)[C@@H]1[C@@H]2[C@H](CN1C(=O)[C@@H](NC(=O)N[C@H](CN(C)S(=O)(=O)CC)C(C)(C)C)C1Cc3ccccc3C1)C2(C)C)C(=O)C(=O)NC1CC1 (stereo partly drawn) [Compound 11400] and CCN(C[C@@H](NC(=O)N[C@H](C(=O)N1C[C@H]2[C@@H]([C@H]1C(=O)NC(CCC(F)(F)F)C(=O)C(=O)NC1CC1)C2(C)C)C1Cc2ccccc2C1)C(C)(C)C)S(=O)(=O)CC (stereo partly drawn) [Compound 11414] cannot be ordered by pKi: no less than 7.12 for the first, no less than 7.12 for the second.

C=CCNC(=O)C(=O)C(CC1CCC1)NC(=O)[C@@H]1[C@@H]2[C@H](CN1C(=O)[C@@H](NC(=O)N[C@H](CN(C)S(=O)(=O)c1cccnc1)C(C)(C)C)C1(C)CCCCC1)C2(C)C (stereo partly drawn) [Compound 11408] and CCN(C[C@@H](NC(=O)N[C@H](C(=O)N1C[C@H]2[C@@H]([C@H]1C(=O)NC(CC1CC1)C(=O)C(=O)NC1CC1)C2(C)C)C1Cc2ccccc2C1)C(C)(C)C)S(=O)(=O)CC (stereo partly drawn) [Compound 11413] cannot be ordered by pKi: no less than 7.12 for the first, no less than 7.12 for the second.

Same assay, conditions: Table 6

In order of rising pKi:
1. C=CCNC(=O)C(=O)C(CCCC)NC(=O)[C@@H]1[C@@H]2[C@H](CN1C(=O)[C@@H](NC(=O)N[C@H](CN(C)S(=O)(=O)N(C)C)C(C)(C)C)C(C)(C)C)C2(C)C (stereo partly drawn) [drawing 58]  7.96
2. CCCC(NC(=O)[C@@H]1[C@@H]2[C@H](CN1C(=O)[C@@H](NC(=O)N[C@H](CN(C)S(=O)(=O)CC)C(C)(C)C)C1Cc3ccccc3C1)C2(C)C)C(=O)C(=O)NC1CC1 (stereo partly drawn) [Compound 11400]  8.05
